Data from article PMC11878344 (Angewandte Chemie (International Ed. in English), 2025).

By UniProt entry, the sequences of proteins in these tests, tags left out. Where a name states a change or a piece, a line headed by the entry shows the natural chain unless it says otherwise.
UniProt Q99685, whole entry: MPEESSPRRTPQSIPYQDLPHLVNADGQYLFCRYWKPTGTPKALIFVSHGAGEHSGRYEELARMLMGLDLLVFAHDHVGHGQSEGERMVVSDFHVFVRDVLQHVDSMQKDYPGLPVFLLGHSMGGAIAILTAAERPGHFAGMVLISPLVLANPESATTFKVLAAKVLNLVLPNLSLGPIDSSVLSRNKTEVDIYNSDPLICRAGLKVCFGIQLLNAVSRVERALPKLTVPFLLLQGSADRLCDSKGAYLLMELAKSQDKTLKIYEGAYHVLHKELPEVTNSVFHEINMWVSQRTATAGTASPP
UniProt O35678, whole entry: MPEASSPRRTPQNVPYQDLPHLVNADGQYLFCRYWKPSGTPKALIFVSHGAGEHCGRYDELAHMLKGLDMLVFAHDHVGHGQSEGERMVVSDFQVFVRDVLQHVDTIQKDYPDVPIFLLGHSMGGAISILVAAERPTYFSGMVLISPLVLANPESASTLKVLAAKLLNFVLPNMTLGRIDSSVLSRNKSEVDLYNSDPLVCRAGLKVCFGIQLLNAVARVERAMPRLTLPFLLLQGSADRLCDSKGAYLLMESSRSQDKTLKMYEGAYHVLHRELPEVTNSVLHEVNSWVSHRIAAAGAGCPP

How the values were obtained:
[1] = molecular target: NanoLuc luciferase MAGL fusion protein in HEK293A cells (Homo sapiens, UniProt Q99685); assay: Cellular MAGL NanoBRET target engagement assay
[2] = molecular target: human MAGL (Homo sapiens, UniProt Q99685); assay: In vitro MAGL inhibition assay (2-AG hydrolysis followed by mass spectrometry)
[3] = molecular target: mouse MAGL (Mus musculus, UniProt O35678); assay: as above
[4] = molecular target: MAGL splicing variants in mouse brain proteome (Mus musculus, UniProt O35678); assay: In-gel SDS-PAGE fluorescence labeling of mouse brain proteome with irreversible probes
[5] = Fluorescence excitation/absorption and emission maxima; settings: for λmax Em (fluorescence emission maximum) / λmax Ex (fluorescence excitation maximum): PBS pH 7.4; for λ Abs max / λ Em max: Table S3
[6] = test system: serine hydrolases of the mouse brain proteome (MAGL, DAGL, FAAH, ABHD6, ABHD12); assay: Competitive multiplex ABPP in mouse brain proteome; settings: 1 μM probe
[7] = test system: HT-29 cells; assay: Confocal live cell imaging of HT-29 cells; settings: 0.15 μM, without additional washing steps
[8] = read-out: HEK 293 nanoBRET IC50±SD, Table 2, mean of three independent measurements ± SD
[9] = read-out: hMAGL IC50±SD, Table 2, mean of three independent measurements ± SD
[10] = read-out: mMAGL IC50±SD, Table 2, mean of three independent measurements ± SD
[11] = read-out: IC50 hMAGL, Supporting Information Tables S1-S5
[12] = read-out: IC50 mMAGL, Supporting Information Tables S1-S5

Row | SMILES | pIC50 [1, 8] | pIC50 [2, 9] | pIC50 [3, 10] | Probe concentration at which minor off-target protein labeling (approx. 80 kDa) appears [4] | Probe concentration from which MAGL was detected [4] [nM] | λmax Em (fluorescence emission maximum) [5] [nm] | λmax Ex (fluorescence excitation maximum) [5] [nm] | pIC50 [2, 11] | pIC50 [3, 12] | Blocking of serine hydrolase fluorescence signal (selectivity) [6] | MAGL staining [7] | λ Abs max [5] [nm] | λ Em max [5] [nm] | pIC50 ([1]; read-out: HEK293 nanoBRET IC50, Table 1, transfected HEK293 cells, n=1 to 3) | pIC50 ([2]; read-out: hMAGL IC50, Table 1, n=1 to 3) | pIC50 ([3]; read-out: mMAGL IC50, Table 1, n=1 to 3)
1 | CC1=CC(C)=[N+]2C1=Cc1ccc(CCC(=O)NCCOc3ccccc3CC3CC4(C3)CN(C(=O)OC(C(F)(F)F)C(F)(F)F)C4)n1[B-]2(F)F | < 6.00 | 9.04 | 9.04 | greater than 1 μM | ≥ 1 | 514 | 508 |  |  |  |  |  |  |  |  | 
2 | CC1=CC(C)=[N+]2C1=Cc1ccc(CCC(=O)NCCOc3ccccc3CC3CC4(C3)CN(C(=O)N3CC5(COC(=O)N5)C3)C4)n1[B-]2(F)F | 6.79 | 9.92 | 9.85 |  |  | 514 | 508 | 9.90 | 9.97 | Complete blocking of the fluorescence signal was exclusively observed for MAGL | very specific and selective MAGL staining |  |  |  |  | 
3 | CC1=CC(C)=[N+]2C1=Cc1ccc(CCC(=O)NCCOc3ccccc3COCC3CN(C(=O)N4CC[C@@H]5OCC(=O)N[C@@H]5C4)C3)n1[B-]2(F)F |  |  |  |  |  |  |  | 8.10 | 7.29 |  |  | 503 | 512 |  |  | 
4 | CN1/C(=C/C=C/C2=[N+](CCCCCC(=O)NCCOc3ccccc3COCC3CN(C(=O)N4CC[C@@H]5OCC(=O)N[C@@H]5C4)C3)c3ccccc3C2(C)C)C(C)(C)c2ccccc21 |  |  |  |  |  |  |  | 8.00 | 7.51 |  |  | 552 | 570 |  |  | 
5 | O=C1CO[C@H]2CCN(C(=O)N3CC(COCc4ccccc4OCCNc4ccc([N+](=O)[O-])c5nonc45)C3)C[C@H]2N1 |  |  |  |  |  |  |  |  |  |  |  | 467 | 539 | 5.59 | 8.41 | 8.34

pIC50: −log10 of the molar value. Read-outs that look alike come from different tables or passages of the source.
